# Binding of CDR-mutated scFvs to a peptide of the spike HR2 region

Target peptide (SARS-CoV-2 spike, HR2 region): PDVDLGDISGINAS

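The parent was found by panning a naive human phage display library on the peptide. Designed CDR sequences, proposed from the first random library and measured here. Their group label is 14H_GPLM_Gen (GPLM: also part of the Gaussian process libraries; Gen: genetic algorithm; a sequence that several methods proposed may carry one label only). The scFvs were displayed on barcoded MATa yeast, the peptide on MATalpha yeast. After mating in shaken culture at 30 °C for 16 h, diploids were selected and their barcode pairs sequenced. Each replicate has its own calibration line, from reference interactions of the BCL2 family. Mating was done six times.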

Parent scFv Ab-14: VH joined to VL by three GGGGS repeats. Changes lie in the heavy chain CDRs alone.
VH: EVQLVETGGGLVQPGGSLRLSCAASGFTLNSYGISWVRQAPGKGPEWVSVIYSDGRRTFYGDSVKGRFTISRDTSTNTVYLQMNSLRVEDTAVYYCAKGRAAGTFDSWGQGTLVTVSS
VL: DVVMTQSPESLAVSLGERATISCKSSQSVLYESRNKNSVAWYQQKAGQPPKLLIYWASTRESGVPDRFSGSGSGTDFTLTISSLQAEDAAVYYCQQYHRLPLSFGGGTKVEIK

The parent's heavy chain CDRs are GFTLNSYGIS, VIYSDGRRTFYGDSVK, GRAAGTFDS; each variant's own CDRs replace them letter for letter. Scale: log10 of Kd in nM, estimated from mating counts; low values are strong binders. The mean shown is taken over the replicates in which the pair was detected. "ND" means that the variant was in the library but no mating with the target was seen in that replicate; the authors take this as a sign of poor binding, and no number exists. As a blank, each scFv also met three strains without target: over all heavy chain designs, 1% of these pairings were detected, typically at 2.08 and seldom below 0.84. The control count says in how many pairings with the empty strains this scFv gave a signal, with their mean in brackets. A sequence measured in both rounds can read differently, since the two assays cover different ranges. The authors averaged sequences with at least three values out of six and counted those with two or fewer as poor binders.

| CDR-H1 | CDR-H2 | CDR-H3 | log10 Kd (nM) by replicate | mean, log10 nM | empty controls |
|---|---|---|---|---|---|
| GFSLNSYGIS | VIYSDGRRTFYADSVK | GHAAGTFDS | ND / ND / 1.34 / 1.30 / 0.50 / ND | 1.05 | 0/18 |
| GFTLNSYGIS | VIYSDGKRTFYSDSVK | GQAAGTFDS | 1.29 / 2.37 / 0.24 / 0.44 / 0.79 / 1.80 | 1.15 | 0/18 |
| GFTLESYGIS | VIYSDGRRTFYADSVK | GKAAGTFDS | 0.49 / 0.52 / 0.83 / 1.04 / 0.60 / 0.65 | 0.69 | 0/18 |
| GFVLNSYGIS | VIYSDGRRTFYADSVK | GRQAGTFDS | ND / ND / ND / ND / ND / ND | ND | 0/18 |
| GFELNSYGIS | VIYADGRRTFYGDSVK | GKAAGTFDF | 0.20 / 0.51 / 0.01 / -0.17 / 0.01 / 0.16 | 0.12 | 1/18 (1.82) |
| GFSLNSYGIS | VIYSDGRRTFYADSVK | GRVAGTFDQ | 0.17 / -0.23 / 0.47 / 0.10 / 0.52 / 0.76 | 0.30 | 0/18 |
| GFHLNSYGIS | VIYSDGRRTFYHDSVK | GQTAGTFDS | 0.94 / 0.96 / 0.60 / 0.62 / 0.20 / 0.27 | 0.60 | 0/18 |
| GFHLNSYGIS | VIYSDGRRTFYGDSVK | GRTAGTFDT | 1.75 / 1.94 / 0.67 / 1.50 / 0.83 / 2.29 | 1.50 | 0/18 |
| GFNLNSYGIS | VIYSDGRRTFYADSVK | GHAAGTFDS | ND / ND / ND / 1.24 / ND / ND | 1.24 | 0/18 |
| GFSLNEYGIS | VIYADGRRTFYGDSVK | GQAAGTFDS | -0.20 / -0.54 / -0.60 / -0.52 / -0.69 / -0.46 | -0.50 | 0/18 |
| GFDLNSYGIS | VIYSDGRRTFYGDSVK | GDAAGTFDS | 0.62 / 0.23 / 1.03 / 0.82 / 0.94 / 1.36 | 0.83 | 0/18 |
| GFTLNEYGIS | VIYSDGRRTFYGDSVK | GSAAGTFDL | 0.00 / 0.14 / 0.10 / -0.04 / -0.12 / 0.15 | 0.04 | 2/18 (2.48) |
| GFTLNSYGIS | VIYADGRRTFYGDSVK | GKAAGTFDD | -0.10 / 0.54 / 0.68 / 0.32 / 0.25 / 0.02 | 0.28 | 0/18 |
| GFSLNEYGIS | VIYSDGRRTFYGDSVK | GRKAGTFDS | 0.88 / 2.35 / 2.23 / 1.24 / 0.87 / 0.84 | 1.40 | 0/18 |
| GFGLNEYGIS | VIYSDGRRTFYHDSVK | GRAAGTFDS | 0.55 / 0.08 / 0.09 / -0.28 / 0.04 / 0.26 | 0.12 | 0/18 |
| GFSLNEYGIS | VIYSDGRRTWYGDSVK | GRAAGTFDS | 0.11 / 0.51 / 0.06 / 0.01 / -0.22 / -0.01 | 0.08 | 0/18 |
| GFTLESYGIS | VIYADGKRTFYGDSVK | GRAAGTFDS | 0.35 / 0.11 / -0.41 / -0.02 / 0.35 / 0.33 | 0.12 | 0/18 |
| GFSLNSYGIS | VIYSDGRRTFYVDSVK | GKAAGTFDS | 0.82 / 0.88 / 0.72 / 1.39 / ND / 1.44 | 1.05 | 0/18 |
| KFSLNSYGIS | VIYSDGRRTFYGDSVK | GQAAGTFDS | ND / ND / ND / ND / ND / ND | ND | 0/18 |
| GFDLNSYGIS | VIYSDGRRTFYVDSVK | GKAAGTFDS | 0.56 / 0.67 / 0.75 / 0.07 / 0.26 / 0.23 | 0.42 | 1/18 (2.23) |
| GFSLNNYGIS | VIYSDGRRTFYIDSVK | GQAAGTFDS | 0.98 / 0.89 / 0.91 / 0.20 / 1.38 / 1.05 | 0.90 | 0/18 |
| GFTLNSYGIS | VIYADGRRTFYGDSVK | GQAAGTFDQ | 1.40 / 0.14 / 0.27 / 0.31 / 0.12 / 0.05 | 0.38 | 2/18 (1.21) |
| GFALNEYGIS | VIYSDGRRTFYSDSVK | GRTAGTFDS | 0.16 / -0.45 / -0.33 / -0.25 / -0.48 / -0.23 | -0.26 | 0/18 |
| GFELNSYGIS | VIYSDGRRTFYGDSVK | GRIAGTFDS | 1.05 / 0.94 / 0.76 / 0.65 / 0.92 / 0.58 | 0.82 | 1/18 (2.20) |
| GFELNSYGIS | VIYSDGRRTFYADSVK | GRTAGTFDF | 0.46 / -0.95 / -0.55 / 0.88 / 0.15 / 0.00 | 0.00 | 0/18 |
| GFSLNSYGIS | VIYSDGRRTYYGDSVK | GRAAGTFDS | 1.84 / 0.45 / 0.85 / 0.14 / 1.22 / 0.73 | 0.87 | 0/18 |
| YFTLNEYGIS | VIYSDGRRTFYGDSVK | GRTAGTFDS | ND / 1.42 / 0.43 / ND / ND / ND | 0.93 | 0/18 |
| GFNLNSYGIS | VIYSDGRRTFYADEVK | GQAAGTFDS | 1.20 / 0.45 / 0.37 / 0.90 / 0.85 / 0.43 | 0.70 | 2/18 (2.22) |
| KFSLNSYGIS | VIYSDGRRTFYDDSVK | GRTAGTFDS | ND / 1.07 / ND / ND / 0.86 / 1.88 | 1.27 | 0/18 |
| GFSLNNYGIS | VIYSDGRRTFYSDSVK | GEAAGTFDS | 0.56 / 0.36 / ND / 0.96 / 1.25 / 1.09 | 0.84 | 0/18 |
| GFSLNSYGIS | VIYSDGRRTFYGDSVK | GKQAGTFDS | 0.82 / 0.24 / 0.48 / 0.47 / 0.35 / 0.71 | 0.51 | 1/18 (1.48) |
| GFTLNDYGIS | VIYSDGRRTFYSDSVK | GRQAGTFDS | -0.68 / -0.49 / -0.12 / 0.97 / -0.12 / 0.11 | -0.06 | 1/18 (0.44) |
| MFSLNSYGIS | VIYSDGRRTFYGDSVK | GRTAGTFDS | ND / ND / ND / 1.78 / 2.15 / 1.58 | 1.84 | 0/18 |
| KFSLNDYGIS | VIYSDGRRTFYGDSVK | GRQAGTFDS | 1.80 / 1.38 / 0.68 / 0.45 / 1.33 / 0.85 | 1.08 | 0/18 |
| GFGLNDYGIS | VIYSDGRRTFYGDSVK | GRTAGTFDS | 0.44 / 0.11 / 0.23 / 0.51 / 0.31 / 0.40 | 0.33 | 2/18 (2.45) |
| GFTLESYGIS | VIYADGRRTFYGDDVK | GRAAGTFDS | 0.59 / 0.11 / -0.02 / -0.22 / 0.62 / 0.36 | 0.24 | 0/18 |
| GFSLNSYGIS | VIYSDGRRTFYTDSVK | GSAAGTFDS | ND / 2.35 / 1.60 / ND / 1.20 / 1.65 | 1.70 | 0/18 |
| GFVLNDYGIS | VIYSDGRRTFYGDSVK | GRTAGTFDS | ND / ND / ND / ND / ND / ND | ND | 0/18 |
| GFTLNSYGIS | VIYADGRRTFYGDSVK | GQAAGTFDM | 0.00 / 0.01 / -0.07 / 0.21 / 0.05 / 0.14 | 0.06 | 0/18 |
| GFSLNNYGIS | VIYSDGRRTFYGDSVK | GKAAGTFDS | 0.84 / 1.12 / 0.76 / 0.37 / 2.32 / 0.80 | 1.04 | 0/18 |
| GFVLNSYGIS | VIYSDGRRTFYADSVK | GKAAGTFDS | ND / ND / ND / ND / ND / ND | ND | 0/18 |
| GFYLNEYGIS | VIYSDGRRTFYGDSVK | GRTAGTFDS | 1.88 / 1.50 / 1.38 / 1.13 / 0.89 / 1.17 | 1.32 | 0/18 |
| GFTLESYGIS | VIYSDGMRTFYADSVK | GRAAGTFDS | ND / ND / ND / 1.56 / 1.28 / 2.32 | 1.72 | 0/18 |
| GFTLNEYGIS | VIYSDGRRTFYIDSVK | GRHAGTFDS | 1.79 / 0.84 / 0.03 / 1.40 / 1.50 / 2.28 | 1.31 | 0/18 |
| GFHLNSYGIS | VIYSDGRRTFYSDSVK | GQAAGTFDS | 0.89 / 1.58 / 0.57 / 0.38 / 0.68 / ND | 0.82 | 0/18 |

The last 7 entries again:

{"CDR-H1": "GFTLNSYGIS", "CDR-H2": "VIYADGRRTFYGDSVK", "CDR-H3": "GQAAGTFDM", "log10 Kd (nM) by replicate": "0.00 / 0.01 / -0.07 / 0.21 / 0.05 / 0.14", "mean, log10 nM": "0.06", "empty controls": "0/18"}
{"CDR-H1": "GFSLNNYGIS", "CDR-H2": "VIYSDGRRTFYGDSVK", "CDR-H3": "GKAAGTFDS", "log10 Kd (nM) by replicate": "0.84 / 1.12 / 0.76 / 0.37 / 2.32 / 0.80", "mean, log10 nM": "1.04", "empty controls": "0/18"}
{"CDR-H1": "GFVLNSYGIS", "CDR-H2": "VIYSDGRRTFYADSVK", "CDR-H3": "GKAAGTFDS", "log10 Kd (nM) by replicate": "ND / ND / ND / ND / ND / ND", "mean, log10 nM": "ND", "empty controls": "0/18"}
{"CDR-H1": "GFYLNEYGIS", "CDR-H2": "VIYSDGRRTFYGDSVK", "CDR-H3": "GRTAGTFDS", "log10 Kd (nM) by replicate": "1.88 / 1.50 / 1.38 / 1.13 / 0.89 / 1.17", "mean, log10 nM": "1.32", "empty controls": "0/18"}
{"CDR-H1": "GFTLESYGIS", "CDR-H2": "VIYSDGMRTFYADSVK", "CDR-H3": "GRAAGTFDS", "log10 Kd (nM) by replicate": "ND / ND / ND / 1.56 / 1.28 / 2.32", "mean, log10 nM": "1.72", "empty controls": "0/18"}
{"CDR-H1": "GFTLNEYGIS", "CDR-H2": "VIYSDGRRTFYIDSVK", "CDR-H3": "GRHAGTFDS", "log10 Kd (nM) by replicate": "1.79 / 0.84 / 0.03 / 1.40 / 1.50 / 2.28", "mean, log10 nM": "1.31", "empty controls": "0/18"}
{"CDR-H1": "GFHLNSYGIS", "CDR-H2": "VIYSDGRRTFYSDSVK", "CDR-H3": "GQAAGTFDS", "log10 Kd (nM) by replicate": "0.89 / 1.58 / 0.57 / 0.38 / 0.68 / ND", "mean, log10 nM": "0.82", "empty controls": "0/18"}

The measurements come from Li et al. 2023 (doi:10.1038/s41467-023-39022-2) through the FLAb antibody collection.